Earlier results on one compound are cited in patent US11000512B2, “Use of DDX3 inhibitors as antiproliferative agents” (AZIENDA OSPEDALIERA UNIVERSITARIA SENESE, priority 2016, dated 2021).

By UniProt entry, the sequences of proteins in these tests, tags left out.
UniProt O00571, whole entry: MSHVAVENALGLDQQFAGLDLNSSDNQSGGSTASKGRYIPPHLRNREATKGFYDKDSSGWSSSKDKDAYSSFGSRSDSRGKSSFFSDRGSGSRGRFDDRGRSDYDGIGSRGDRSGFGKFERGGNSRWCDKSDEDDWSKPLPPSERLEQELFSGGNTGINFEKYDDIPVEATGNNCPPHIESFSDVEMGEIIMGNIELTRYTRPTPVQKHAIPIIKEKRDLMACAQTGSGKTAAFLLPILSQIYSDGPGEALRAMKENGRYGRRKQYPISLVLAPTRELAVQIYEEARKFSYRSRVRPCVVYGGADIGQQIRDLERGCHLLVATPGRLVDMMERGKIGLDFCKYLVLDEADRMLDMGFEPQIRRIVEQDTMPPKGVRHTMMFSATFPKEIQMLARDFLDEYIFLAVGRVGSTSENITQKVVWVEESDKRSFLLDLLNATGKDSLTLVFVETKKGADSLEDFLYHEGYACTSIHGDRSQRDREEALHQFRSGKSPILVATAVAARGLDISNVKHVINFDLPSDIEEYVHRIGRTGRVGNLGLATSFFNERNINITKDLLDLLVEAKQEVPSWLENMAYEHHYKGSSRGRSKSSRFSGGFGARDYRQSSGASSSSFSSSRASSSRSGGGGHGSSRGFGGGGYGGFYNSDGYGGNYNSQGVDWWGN

The structures appear in SMILES notation.

In the data set the target is ATPase activity of DDX3 (Homo sapiens, UniProt O00571). Particulars: on DDX3; second-generation and triazine inhibitors, 2011; cited from earlier work.

As to `O=C1/C(=C/c2c(NCCCO)nc3ccccn3c2=O)SC(=S)N1CCc1ccccc1`, the inhibitory constant (Ki) is 200 nM.

Broadly, the Ki is a measure of affinity in units of concentration, obtained from inhibition or displacement.
